Source: patent US10590373B2, “Systems and methods for biomimetic fluid processing” (BRIGHAM AND WOMEN'S HOSPITAL, INC., priority 2014, dated 2020)

Test system: MKs
Details: live-cell microscopy

Substance: trastuzumab emtansine [T-DM1]
- MK differentiation: inhibits
- proPLT formation: disrupts
- tubulin organization (GFP-β1 tubulin): abnormal
